According to PubChem BioAssay AID492972 (The Scripps Research Institute Molecular Screening Center, 2010):
The entries are a selection whose mix differs from that of the whole data set. The source made the active and inactive calls.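 How the source made its calls: active means inhibition above the screen-wide average of all tested compounds plus 3 SD (cut at about 25% in these data); inactive means the rest.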

Amino acid sequences for entries named in this document (tags omitted).
UniProt Q15102, whole entry: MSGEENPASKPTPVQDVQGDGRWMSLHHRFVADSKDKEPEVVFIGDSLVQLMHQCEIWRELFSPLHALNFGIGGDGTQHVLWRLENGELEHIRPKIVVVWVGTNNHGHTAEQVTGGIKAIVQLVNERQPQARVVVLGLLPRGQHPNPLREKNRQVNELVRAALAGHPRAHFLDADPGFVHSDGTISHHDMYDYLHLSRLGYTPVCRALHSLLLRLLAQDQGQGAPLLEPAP

Each compound was assayed against Platelet-activating factor acetylhydrolase IB subunit alpha1 (Homo sapiens) (UniProt Q15102) (assay: inhibition of PAF acetylhydrolase 1B subunit 3 – biochemical, fluorescence polarization, human, primary screen (AID 492972;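 further: 0% = enzyme with DMSO only and 100% = wells lacking PAFAH1B3 protein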)). Details: recombinant PAFAH1B3, FP-rhodamine probe, at 3.39 µM, hits give high values.

Structure (SMILES)	inhibition
CCC(=O)N(c1ccccc1)C1(COC)CCN(CCn2nnn(CC)c2=O)CC1	inactive: 4.27%
CCC(=O)N(c1ccccc1)C1(COC)CCN(CCc2cccs2)CC1	inactive: 9.15%
